These results are taken from publication PMC6225275 (Molecules : A Journal of Synthetic Chemistry and Natural …, 2018).

Protein sequences, listed by entry. Tags and fused reporters are not part of them. Residues count along the entry.
UniProt P22303, 32-614 limits assumed: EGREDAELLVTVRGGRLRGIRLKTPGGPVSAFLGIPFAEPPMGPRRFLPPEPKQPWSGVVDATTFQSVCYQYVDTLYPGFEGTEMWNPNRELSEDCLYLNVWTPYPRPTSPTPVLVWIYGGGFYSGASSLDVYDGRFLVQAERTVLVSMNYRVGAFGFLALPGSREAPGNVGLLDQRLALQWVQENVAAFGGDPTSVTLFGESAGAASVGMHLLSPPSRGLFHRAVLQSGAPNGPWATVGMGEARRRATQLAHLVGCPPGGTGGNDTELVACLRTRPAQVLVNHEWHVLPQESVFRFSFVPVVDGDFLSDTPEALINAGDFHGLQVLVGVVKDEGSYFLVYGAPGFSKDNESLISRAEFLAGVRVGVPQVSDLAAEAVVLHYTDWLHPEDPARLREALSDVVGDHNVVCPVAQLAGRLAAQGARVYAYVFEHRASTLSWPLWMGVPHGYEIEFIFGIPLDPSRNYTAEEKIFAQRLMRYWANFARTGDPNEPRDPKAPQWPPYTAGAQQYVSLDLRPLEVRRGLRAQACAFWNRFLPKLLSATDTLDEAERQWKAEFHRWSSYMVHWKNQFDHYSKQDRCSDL

The assay concerns the target tabun (GA)-inhibited human recombinant AChE (HssAChE) (Homo sapiens, UniProt P22303). The assay can be described thus: Reactivation of tabun (GA)-inhibited HssAChE, Ellman protocol. The conditions noted are these: 15 min incubation, pH 7.4, triplicate.

`ON=Cc1cc[n+](CCCC[n+]2ccccc2)cc1.[Br-].[Br-]` [Compound 10, 4-Hydroxyiminomethyl-1,1′-(but-1,4-diyl)-bispyridinium dibromide]: the “GA-HssAChE Reactivation (% ± SD)” value came out at 4.5 ± 0.3% (reactivator 10 μM) and 3.9 ± 0.1% (reactivator 100 μM).

In the case of `Cc1cc[n+](CCCC[n+]2ccc(C=NO)cc2)cc1.[Br-].[Br-]` [Compound 14, 4-Hydroxyiminomethyl-4′-methyl-1,1′-(but-1,4-diyl)-bispyridinium dibromide], the “GA-HssAChE Reactivation (% ± SD)” value worked out at 6.3 ± 0.3% (reactivator 10 μM) and 3.4 ± 0.4% (reactivator 100 μM).

Take `OCc1cc[n+](CCCC[n+]2ccc(C=NO)cc2)cc1.[Br-].[Br-]` [Compound 18, 4-Hydroxyiminomethyl-4′-hydroxymethyl-1,1′-(but-1,4-diyl)-bispyridinium dibromide]: the “GA-HssAChE Reactivation (% ± SD)” value came to 4.0 ± 0.3% (reactivator 10 μM) and 2.6 ± 0.3% (reactivator 100 μM).

Turning to `O=C(O)c1cc[n+](CCCC[n+]2ccc(C=NO)cc2)cc1.[Br-].[Br-]` [Compound 20, 4-Carboxy-4′-hydroxyiminomethyl-1,1′-(but-1,4-diyl)-bispyridinium dibromide], the “GA-HssAChE Reactivation (% ± SD)” value by setting is: (reactivator 10 μM) 6.2 ± 0.3%; (reactivator 100 μM) 3.3 ± 0.5%.
